Publication PMC7750258 (Progress in neuro-psychopharmacology & biological psychiatry, 2020)

Protein sequences, listed by entry. Tags and fused reporters are not part of them.
UniProt P47746, whole entry: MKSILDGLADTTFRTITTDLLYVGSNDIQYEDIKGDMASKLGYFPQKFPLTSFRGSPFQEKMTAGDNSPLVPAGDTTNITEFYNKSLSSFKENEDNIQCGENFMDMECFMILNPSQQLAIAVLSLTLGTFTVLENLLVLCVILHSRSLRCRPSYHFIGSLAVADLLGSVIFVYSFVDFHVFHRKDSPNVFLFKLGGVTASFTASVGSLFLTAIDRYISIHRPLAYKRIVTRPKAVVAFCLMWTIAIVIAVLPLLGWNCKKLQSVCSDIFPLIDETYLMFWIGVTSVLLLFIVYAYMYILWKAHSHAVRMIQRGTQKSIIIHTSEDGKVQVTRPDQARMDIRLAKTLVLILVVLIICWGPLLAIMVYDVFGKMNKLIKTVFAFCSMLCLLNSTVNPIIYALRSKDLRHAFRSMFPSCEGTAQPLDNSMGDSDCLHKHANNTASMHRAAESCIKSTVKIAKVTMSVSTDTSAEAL

Legend:
CB1 receptor [1] = target: T1, CB1 receptor (Mus musculus, UniProt P47746); assay: Agonist-stimulated [35S]GTPγS binding in mouse cerebellar membranes; type: biochemical, ICR mice; details: Potency (EC50 ± SEM) nM, cerebellum
CB1 receptor [2] = target: T1, CB1 receptor; assay: [3H]CP55,940 displacement binding in mouse cerebellar membranes; parameters: species or system ICR mice; details: CB1 Binding Affinity (Ki in nM), female mice, cerebellum; N = 4 / value

CCCCCc1cc(O)c2c(c1)OC(C)(C)[C@@H]1CCC(C)=C[C@@H]21 [THC, Δ^9-tetrahydrocanabinol]
EC50 (CB1 receptor [1]; female mice): 68.2 nM | EC50 (CB1 receptor [1]; male mice): 64.6 nM | Ki (CB1 receptor [2]): 37.5 nM
